How the values were obtained:
[1] = Oral administration of Compound KC-55 co-dosed with Compound 109 to rats (Example 49); settings: oxycodone values in Table 14 adjusted to expected values at a 36 μmol/kg dose
[2] = Pharmacokinetics following PO administration of Compound KC-55 to rats (Example 48); settings: oxycodone in rat plasma; oxycodone PO 10 mg/kg (28 μmol/kg)

Question: Which “Tmax ± sd” value [1] does the source give for `COc1ccc2c3c1O[C@H]1C(=O)CC[C@@]4(O)[C@@H](C2)N(C)CC[C@]314` [Oxycodone, oxycodone] here?
Answer: 37.5 min

Question: And the “Tmax ± sd” value [2]?
Answer: 37.5 ± 25.8 min

Source: patent US20160002291A1, “Active Agent Prodrugs with Heterocyclic Linkers” (Signature Therapeutics, Inc., priority 2011, published 2016)
